Laboratory results from patent US11779565B2, “Small organic molecules for use in the treatment of neuroinflammatory disorders” (THE MEDICAL RESEARCH, INFRASTRUCTURE AND HEALTH SERVICES …, priority 2017, dated 2023).

Legend:
P19 cells = experiment: In vitro differentiation assay of P19 cells (MAP-2 positive neurons); type: cell-based, murine; settings: RA + 5 ng/ml rhBMP-2, day 8
Experimental: P19 cells were grown in a-minimum essential medium (aMEM) (Gibco) containing 7.5% calf serum, 2.5% fetal calf serum, and 0.4 μl/ml penicillin—streptomycin (Gibco), at 37° C., 5% CO2. Cells were replenished with fresh medium every 48 h. For the differentiation study, P19 cells were cultured at concentration of 2×10^5 cells/60 mm bacterial dish and were either unstimulated or incubated with the following stimulations: • 1) 5×10^−7 M all-trans-retinoic acid (RA) (Sigma) • 2) RA+5 ng/ml rhBMP2 (R&D systems) • 3) RA+rhBMP-2+500 ng/ml mouse anti-human BMP-2/4 mAb (R&D systems) • 4) RA+ rhBMP-2+SM1/SM7/SM9 (Maybridge (HitFinder™ Collection)) at concentrations: 0.625, 1.25 and 2.5 μM.
The medium, including RA, BMP supplements and SMs, was replenished after 48 h. After 4 days, aggregates which formed during RA treatment were dispersed enzymatically (0.05% v/v trypsin-0.02% v/v EDTA) and mechanically and plated in tissue culture grade dishes. At this stage, cells were cultured in RA-, BMP- and SM-free medium, which was refreshed every 48 h. MAP-2 positive neurons were examined at day 8 (i.e., day 4 post-RA treatment) by immunofluorescence. Briefly, at day 7, cells were re-cultured in 24 well-plates with cover slips at a final concentration of 5×10^4 cells/well. […]
Next, the effect of the small molecules on neurogenesis in a P19 differentiation model was measured. […]

BMP-2 = biological target: T1, BMP-2 (Homo sapiens, UniProt P12643); experiment: ATDC5 cell based HTS bioassay: ALP production stimulated by BMP-2 and heparin; parameters: species or system mouse; settings: rhBMP-2 2 μg/ml with heparin vs. no BMP-2, ATDC5 cells
T1 construct: purchased R&D Systems
T1 sequence (P12643 283-396): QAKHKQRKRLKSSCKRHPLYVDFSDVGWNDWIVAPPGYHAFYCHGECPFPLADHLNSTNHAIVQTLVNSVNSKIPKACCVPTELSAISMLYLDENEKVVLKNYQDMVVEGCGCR
Experimental: Poly-L-lysine (Sigma-Aldrich) was added to 384-well plates and was removed after 30 min of incubation at RT. An assay medium containing DMEM/F12, 2% FBS, 100 units/ml penicillin, […] streptomycin (Biological industries) was added to each well. Recombinant human BMP-2 (rhBMP-2, R&D Systems) was then added to each well to a final concentration of 2 μg/ml. ATDC5 cells (Sigma-Aldrich) were harvested, re-suspended in assay medium and added to a final concentration of 2000 cells/well. Finally, heparin (Sigma-Aldrich) was added to a final concentration of 2 μg/ml. […] After incubation, ALP levels and cell viability were determined using a completely automated protocol. […] ALP level was then determined by addition of CDP-Star® chemiluminescent substrate (Sigma-Aldrich) and measurement of luminescence after incubation for 25 min at RT in the dark. Cell viability was finally determined by addition of CellTiter-Glo® reagent (Biological Industries) and luminescence measurement after 10 min of incubation. […]
A library of small molecules (SM) was screened using the High Throughput Screening bioassay described above. […] The ALP levels and cell viability are shown in FIG. 2 as a percentage of the ALP or viability luminescence levels in the presence of BMP-2 without the SM. […]

SMAD1/5/8 signaling = SMAD1/5/8 signaling by Western blot in P19 cells; type: cell-based, murine; settings: stimulation for 4 hours vs. no stimulation
Experimental: P19 cells were seeded in 6-well-plates (3.5×10^5 cells/well). On the following day, the cells were either untreated or treated with 5×10^−7 M RA, 5 ng/ml BMP-2 or SMs for 4 h. Cells were washed with ice cold PBS, harvested and lysed with ice cold RIPA buffer (Sigma-Aldrich) supplemented with protease inhibitor cocktail and sodium orthovanadate (Na3VO4) as phosphatase inhibitor (Sigma-Aldrich). Protein concentrations were determined using a BCA protein assay kit (Pierce, Rockford, Ill.). Cell lysates (40-60 μg protein) were separated by 4-15% SDS-PAGE gel electrophoresis and then transferred to nitrocellulose membranes at 0.2 A for 2 h. The membranes were blocked at room temperature for 1 h in 5% (w/v) non-fat-dried milk and then incubated with anti-phospho-Smad1/5/9, anti-Smad1 (Cell signaling Technology, Beverly, Mass., USA) and anti-tubulin (Sigma-Aldrich) antibodies at room temperature for 2 h. The membranes were washed and incubated with alkaline phosphatase-conjugated secondary antibody (Jackson Laboratories Immune Research, PA, USA). Signal was detected using enhanced chemiluminescence kit (Clarity, Bio-Rad Laboratories, Richmond, Calif.) and digital images were captured by MicroChemi (DNR Bio-imaging Systems, Jerusalem, Israel). Protein levels were quantified using ImageJ software and normalized to {alpha}-tubulin. […]

ratio of ALP/cell, induction (BMP-2): 4.3 fold
Substance: rhBMP-2: Recombinant human BMP-2 (R&D Systems), the stimulus of the assays
MAP-2+ cells (P19 cells): 31.4±4.3%
induction of p-SMAD expression (normalized to tubulin) (SMAD1/5/8 signaling): 4.9 fold
